According to patent US12194158B2, “Oromucosal nanofiber carriers for therapeutic treatment” (Instar Technologies A.S., priority 2016, dated 2025):

Experiments:
[1] = in water at 25° C.; cited from earlier work
[2] = plasma protein; cited from earlier work

Substance	isoelectric point (pI) [1]	release from the resulting carriers (albumin containing nanofibres)	sublingual permeation level (albumin containing nanofibres)	time after loading donor samples onto mucosa at which permeation was detected (ca 4.8 mg total albumin in donor) [min]	average half-life [2] [days]	transmucosal in vitro permeation through sublingual porcine membrane (ca 4.8 mg total albumin in donor, FIG. 6)
bovine serum albumin [BSA]	~4.7	release easily	at a high level	20	19	–
fluorescent isothiocyanate-BSA [FITC-BSA, reference compound]	–	–	–	–	–	well measurable
